Assays:
fibroblast cells (T1) = assay: Fibroblast proliferation assay (MTT), control cells; type: cell-based; conditions: concentration not printed
Experimental: (§1) To determine if Saposin B polypeptides had anti-angiogenic activity, a series of overlapping polypeptides were synthesized and tested in the KS Y-1 cell proliferation assay. The overlapping polypeptides are SEQ ID NOs:13 though 43. Cell Proliferation assays in either KS cells or fibroblast. Cells were plated in 48 well plates at equal numbers in appropriate culture medium. Cells were treated with the test compounds at various concentrations on day one, and on day 3. MTT was done on day 5. KS cells were used to represent the activated endothelial cells, while fibroblast cells represent the control cells. The results are remarkable for the lack of toxicity to the fibroblast relative to the activated endothelial cells/KS cells.

KS Y-1 cells = assay: KS Y-1 cell proliferation assay (MTT); type: cell-based; conditions: concentration not given
Experimental: as §1

KS-SLK or KS Y-1 tumors = assay: KS tumor growth in nude mice; type: in vivo; conditions: 50 mg/kg subcutaneously daily from the day after implantation; FIG. 6
Experimental: FIG. 6: Effect of pentapeptide DVCQD (SEQ ID NO:28) on the growth of established KS Y-1 tumors in mice. Mice were implanted with the tumor on day one. Treatment with the peptide was started on the following day at a dose of 50 mg/kg subcutaneously daily. […] The arrow marks initiation of daily subcutaneous dosing.
In order to determine the anti-angiogenic activity of the recombinant Saposin B, tumor cells were implanted in immuno-deficient mice and treated with either Saposin B or buffer alone.
Nude mice were injected with 2×10^6 KS-SLK or KS Y-1 cells subcutaneously in a total volume of 100 μL. After one week of tumor development, the mice were injected subcutaneously daily with either PBS or Saposin B at concentrations of 1, 10 and 20 mg/kg for a total protein concentration of […]. The tumor size was measured three times a week. The results represent the median of 4 mice in each group.
To determine whether this anti-tumor effect was reproducible with different classes of syngeneic-tumors, C57BL/6 mice were implanted with Lewis lung carcinoma, melanoma (B16), and T-cell lymphoma (EL-4) cell lines. KS Y-1 was implanted into nude mice for a positive control. The day following tumor implantation, 2.5 mg/kg of Saposin B was administered intraperitoneally. Tumor size was measured three times a week for two weeks at which time the mice were sacrificed for analysis. […]

[1] = tested on: endothelial cells (HUVEC); assay: Growth inhibition of endothelial cells; type: cell-based
Experimental: Typically, in an anti-proliferation assay, the suppression of growth in the presence of the compound to be tested is measured. For example, the above cells are incubated with the polypeptides of this invention for a suitable time and the decrease in the growth rate relative to a negative control, i.e., cells of the same cell line which have been incubated in media alone, is measured. Growth of the cell culture can be measured by any method acceptable to one of skill, including but not limited to, 3H-thymidine uptake, cell counting and tetrazolium dye uptake.
By SDS-PAGE, the bacterial product was smaller than the eukaryotic protein. Because prokaryotically expressed proteins are not glycosylated, the difference in molecular weights probably represents the presence of carbohydrate in the eukaryotic protein. Recombinant proteins were then tested in KS, endothelial and control cell lines. Activity was found only in KS cell lines and endothelial cells.

## CC(C)[C@H](NC(=O)[C@@H](N)CC(=O)O)C(=O)N[C@@H](CS)C(=O)N[C@@H](CCC(N)=O)C(=O)N[C@@H](CC(=O)O)C(=O)O [SEQ ID NO:28, DVCQD]
Fibroblast cells (T1); T1, first value column
  Cell Proliferation Activity (% of control), T1: 91 % of control
Fibroblast cells (T1); T1, second value column
  Cell Proliferation Activity (% of control), T1: 87 % of control
KS Y-1 cells; KS Y-1, first value column
  Cell Proliferation Activity (% of control), KS Y-1: 30 % of control
KS Y-1 cells; KS Y-1
  Cell Proliferation Activity (% of control), KS Y-1: 10 % of control
KS-SLK or KS Y-1 tumors
  growth of KS Y-1 tumors in mice (tumor volumes): significantly smaller
[1]
  growth inhibition / activity against endothelial cells: Only endothelial cells show dose dependent growth inhibition
